One assay deals with T1, PRKD3 (Homo sapiens, UniProt O94806).
T1 sequence (O94806 1-890): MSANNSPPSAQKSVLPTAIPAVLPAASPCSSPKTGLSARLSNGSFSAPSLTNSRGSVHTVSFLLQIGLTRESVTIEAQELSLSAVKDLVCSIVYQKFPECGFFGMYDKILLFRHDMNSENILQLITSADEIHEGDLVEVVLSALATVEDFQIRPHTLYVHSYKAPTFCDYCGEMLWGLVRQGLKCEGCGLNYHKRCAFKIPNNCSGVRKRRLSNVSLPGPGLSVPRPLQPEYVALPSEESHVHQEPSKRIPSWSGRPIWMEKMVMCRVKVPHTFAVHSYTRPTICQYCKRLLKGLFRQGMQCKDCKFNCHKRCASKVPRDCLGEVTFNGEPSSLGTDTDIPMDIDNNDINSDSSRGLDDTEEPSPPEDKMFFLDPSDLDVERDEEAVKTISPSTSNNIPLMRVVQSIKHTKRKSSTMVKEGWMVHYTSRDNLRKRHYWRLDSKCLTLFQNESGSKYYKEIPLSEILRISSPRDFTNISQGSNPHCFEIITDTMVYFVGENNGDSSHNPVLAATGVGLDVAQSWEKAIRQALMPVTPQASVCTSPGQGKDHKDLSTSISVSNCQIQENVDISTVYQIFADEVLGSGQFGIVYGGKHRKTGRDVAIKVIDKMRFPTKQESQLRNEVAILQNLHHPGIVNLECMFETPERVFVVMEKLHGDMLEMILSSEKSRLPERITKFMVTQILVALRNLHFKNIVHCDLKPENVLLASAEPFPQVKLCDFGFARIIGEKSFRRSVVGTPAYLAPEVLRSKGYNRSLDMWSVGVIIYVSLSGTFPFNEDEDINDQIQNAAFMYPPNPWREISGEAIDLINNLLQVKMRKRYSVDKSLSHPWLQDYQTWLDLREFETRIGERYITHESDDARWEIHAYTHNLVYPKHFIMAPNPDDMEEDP
The settings on record: read-out: IC50 PRKD3; cited from earlier work.

The chains behind the UniProt entries cited, without tags or fusion partners.
UniProt Q16539, whole entry: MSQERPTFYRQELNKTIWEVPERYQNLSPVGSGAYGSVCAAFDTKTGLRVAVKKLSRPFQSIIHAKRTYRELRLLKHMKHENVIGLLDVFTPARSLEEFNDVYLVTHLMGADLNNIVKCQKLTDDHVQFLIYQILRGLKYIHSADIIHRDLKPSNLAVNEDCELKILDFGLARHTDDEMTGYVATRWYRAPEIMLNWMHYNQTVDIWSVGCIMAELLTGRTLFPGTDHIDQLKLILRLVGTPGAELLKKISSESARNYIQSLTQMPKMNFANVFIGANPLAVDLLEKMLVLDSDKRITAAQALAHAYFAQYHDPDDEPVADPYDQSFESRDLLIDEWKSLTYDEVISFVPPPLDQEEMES

Assay [1] deals with cellular kinases of SH-SY5Y cells (Homo sapiens, UniProt Q16539). The assay can be described thus: biochemical. The settings on record: read-out: KiNativ in-cell binding, % Inhibition, MAPK14/p38a.
In a further assay the target is T2, ACVR1B (Homo sapiens, UniProt P36896).
T2 sequence (P36896 24-505): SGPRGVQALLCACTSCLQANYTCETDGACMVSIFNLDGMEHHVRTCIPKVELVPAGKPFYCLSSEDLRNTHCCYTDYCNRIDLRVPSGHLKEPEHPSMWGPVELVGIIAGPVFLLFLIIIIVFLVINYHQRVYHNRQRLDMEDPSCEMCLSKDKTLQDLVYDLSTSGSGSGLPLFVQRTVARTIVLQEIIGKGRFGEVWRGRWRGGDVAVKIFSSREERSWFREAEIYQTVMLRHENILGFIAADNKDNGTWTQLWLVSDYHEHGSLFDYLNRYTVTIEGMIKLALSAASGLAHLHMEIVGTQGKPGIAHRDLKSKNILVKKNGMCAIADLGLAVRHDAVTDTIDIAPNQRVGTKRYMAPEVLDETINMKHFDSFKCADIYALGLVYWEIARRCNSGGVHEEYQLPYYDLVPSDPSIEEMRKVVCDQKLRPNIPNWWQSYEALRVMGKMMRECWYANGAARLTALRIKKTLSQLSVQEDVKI
Kind of assay: KINOMEscan ACVR1B. Type of assay: binding.

Each structure is given as a SMILES string.

As for `CC[C@@H](N)CNc1ccnc(-c2cc(-c3cnn(C)c3)ccc2O)n1` [CRT0066101], at PRKD3, the IC50 was 2 nM.

For the compound `Cc1cccc(-c2nc(Nc3ccc4ncsc4c3)c3ccccc3n2)n1` [NK140], the inhibition at 2 µM in assay [1] was found to be 17.7%.

As for `Cc1cccc(-c2nc(Nc3ccc4ncoc4c3)c3ccccc3n2)n1` [NK176], the “KINOMEscan ACVR1B” value at ACVR1B was determined as 58.
